This is an account of results in patent publication US8507510B2, “Sulfoximine-substituted pyrimidines as CDK- and/or VEGF inhibitors, their production and use as pharmaceutical agents” (Bayer Intellectual Property GmbH, priority 2003, dated 2013).

The chains behind the UniProt entries cited, without tags or fusion partners.
UniProt P06493, whole entry: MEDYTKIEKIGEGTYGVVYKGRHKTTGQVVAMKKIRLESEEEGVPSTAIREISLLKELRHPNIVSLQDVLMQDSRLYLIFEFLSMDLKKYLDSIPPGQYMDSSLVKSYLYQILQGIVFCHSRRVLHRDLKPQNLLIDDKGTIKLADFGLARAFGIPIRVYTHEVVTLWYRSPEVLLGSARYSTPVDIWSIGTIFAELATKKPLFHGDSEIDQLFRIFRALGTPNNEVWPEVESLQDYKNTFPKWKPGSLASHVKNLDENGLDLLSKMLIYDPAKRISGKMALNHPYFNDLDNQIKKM

For assay [1], the target named is CDK1/CycB (Homo sapiens (Human), UniProt P06493). Put plainly: CDK1/CycB kinase assay. Format: biochemical. The settings on record: histone IIIS substrate, 0.5 μm ATP.
The target of assay [2] is CDK2/CycE (Homo sapiens (Human), UniProt P24941). As to the kind of experiment: CDK2/CycE kinase assay. Format: biochemical. To be noted: histone IIIS substrate, 0.5 μm ATP.
The test system of assay [3] is DU145. Put plainly: Proliferation assay, DU145. Format: cell-based. The settings on record: Homo sapiens, DU-145, 96 h, DU145 cells, 4 days, crystal violet. From the text:
Cultivated human tumor cells (MCF7, […] human breast cancer cells, related to ATCC HTB22; NCI-H460, human non-small-cell lung cancer cells, ATCC HTB-177, HCT 116, human colon cancer cells, ATCC CCL-247; DU 145, hormone-independent human prostate cancer cells, ATCC HTB-81; MaTu-MDR, hormone-independent, multiple pharmaceutical agent-resistant human breast cancer cells, EPO-GmbH, Berlin) were flattened out at a density of about 5000 cells/measuring point, depending on the growth rate of the respective cells, in a 96-well multititer plate in 200 μl of the corresponding growth medium. […] The cell proliferation was determined by coloring the cells with crystal violet: the cells were fixed by adding 20 μl/measuring point of an 11% glutaric aldehyde solution for 15 minutes at room temperature. […] The extinction was determined by photometry at a wavelength of 595 nm The change of cell growth, in percent, was calculated by normalization of the measured values to the extinction values of the zero-point plate (=0%) and the extinction of the untreated (0 μm) cells (=100%).

By IC50 is commonly meant the concentration that gives 50% inhibition. `COc1cc(Nc2ncc(Br)c(N[C@H](C)[C@@H](C)O)n2)ccc1S(C)(=N)=O` (single isomer, unassigned) [Example 1.27] displayed an IC50 in assay [1] of 3 nM.
Consider `C[C@@H](O)[C@@H](C)Nc1nc(Nc2ccc(S(C)(=N)=O)cc2)ncc1Br` (single isomer, unassigned) [Example 1.44], for which, in assay [2], the 50% inhibitory concentration (IC50) came out at 2 nM. This lies in the single-digit nanomolar range.
Take `CCS(=N)(=O)c1ccc(Nc2ncc(Br)c(N[C@H](C)C(C)(C)O)n2)cc1` (single isomer, unassigned) [Example 1.56]: the values for the concentration for half-maximal inhibition (IC50) in assay [2] and in assay [3] were 24 nM and 70 nM, respectively.
